Here are results for 1 compound from US9597402B2, “Sustained release small molecule drug formulation” (DURECT CORPORATION, priority 2005, dated 2017).

Converted amounts (≈) assume the structure as drawn.

One series can be described thus: physchem. Conditions: organic solvent or mixture. The text has this: (§1) In one embodiment, a small molecule drug formulation includes a small molecule psychotherapeutic drug, such as a small molecule antipsychotic, dopamine receptor agonist, dopamine receptor antagonist, serotonin receptor agonist, serotonin receptor antagonist, and serotonin uptake inhibitor drug. […] R209130-base has the molecular formula C19H20FNO. R209130-mandelic acid salt (R209130) has the molecular formula C19H20FNO.C8H8O3. R209130-tartaric acid salt (R167154) has the molecular formula C19H20FNO.C4H6O6.

A short description of a further series: LogP (C8OH/pH 7 buffer). In kind it is physicochemical. Conditions: octanol/pH 7 buffer.
Excerpt: as §1

For the compound `Cc1nc2n(c(=O)c1CCN1CCC(c3noc4cc(F)ccc34)CC1)CCCC2` [Risperidone base, Risperidone], in the series “physchem”, the solubility (commonly the concentration that dissolves in the medium under given conditions) turned out to be 407 mg/mL (≈ 991 mM). The log partition coefficient (logP) (in general, a log measure of how a compound divides between an organic and an aqueous phase) in the series “LogP (C8OH/pH 7 buffer)” came to 3.04.
